Reference: patent US20060270634A1, “Acetal phosphate-derived LPA mimics, PPARgamma activators, and autotaxin inhibitors” (priority 2005, published 2006)

Molecular target: T1, LPA3 (Homo sapiens, UniProt Q9UBY5)
T1 sequence (Q9UBY5 1-353): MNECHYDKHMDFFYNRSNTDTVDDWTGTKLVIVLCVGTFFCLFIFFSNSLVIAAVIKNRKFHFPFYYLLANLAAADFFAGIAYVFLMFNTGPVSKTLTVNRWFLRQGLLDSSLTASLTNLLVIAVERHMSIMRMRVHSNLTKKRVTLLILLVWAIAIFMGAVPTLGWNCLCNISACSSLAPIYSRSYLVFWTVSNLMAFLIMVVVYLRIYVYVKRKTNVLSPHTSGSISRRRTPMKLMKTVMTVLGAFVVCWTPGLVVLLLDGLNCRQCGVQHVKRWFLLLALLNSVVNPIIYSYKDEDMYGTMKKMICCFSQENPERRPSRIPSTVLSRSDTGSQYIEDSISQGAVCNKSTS
Assay: Ca2+ transients in RH7777 cells expressing LPA3 (agonist / inhibition of LPA response)
Settings: Table 5

Ki (read-out: LPA3 (Ki)): 119 nM
IC50 (read-out: LPA3 IC50): 207 nM
Structure (SMILES): CCCCCCCC(=O)OC[C@@H](COP(=O)(O)O)OC(=O)CCCCCCC [Cpd 7a, (2S)-PA 8:0]
